Laboratory results from patent US20100075972A1, “AGENT FOR TREATMENT OF MULTIPLE SCLEROSIS” (Kowa Co., Ltd., priority 2007, published 2010).

Experiments:
[1] = system: experimental autoimmune encephalomyelitis model; assay: experimental autoimmune encephalomyelitis mouse model, symptom scores; format: in vivo, C57BL/6 mice; details: EAE mice
Procedure: 2-Benzyl-5-(4-chlorophenyl)-6-[4-(methylthio)phenyl]-2H-pyridazin-3-one (hereinafter will be referred to as “drug A”) was administered to mice of an experimental autoimmune encephalomyelitis model, and symptoms of the disease were observed, whereby the drug was evaluated. The experimental autoimmune encephalomyelitis model is established by immunizing a mouse with myelin protein (i.e., myelin-sheath-constituting protein), thereby causing T-cell-mediated autoimmune inflammation in the central nervous system.
Seven-week-old female C57BL/6 mice (Charles River Laboratories Japan, Inc.) were employed. A sensitizing emulsion for causing the mice to develop experimental autoimmune encephalomyelitis was prepared by mixing myelin oligodendrocyte glycoprotein (MOG) 35-55 (Alexis Biochemical) with an equiamount of complete Freund's adjuvant H37Ra (DIFCO) so that the MOG concentration was 2 mg/mL, followed by homogenization under ice cooling by means of Handy Micro Homogenizer (product of Microtec Co., Ltd.). The thus-prepared emulsion (0.1 mL) was intradermally administered to each mouse at its tail base for initial sensitization. On the same day, pertussis toxin dissolved in saline (500 ng/0.3 mL) was intravenously injected to the tail. Two days after initial sensitization, in a manner similar to that described above, pertussis toxin (500 ng/0.3 mL) was intravenously injected for booster. Drug A was orally administered (30 mg/kg) twice a day in the morning (9:00 to 11:00) and in the evening (15:30 to 17:30) from the day following the initial sensitization to 42 days after sensitization. IFN-β (Nihon Schering) was subcutaneously administered every other day at a dose of 10,000 IU/individual.
The drugs were evaluated from the condition of experimentally created autoimmune encephalomyelitis according to the following ratings:
score 1: limp tail or abnormal gait;
score 2: limp tail and abnormal gait;
score 3: paralysis of one limb;
score 4: paralysis of two or more limbs; and […]

F4/80 mRNA = F4/80 mRNA expression in the spinal cord of experimental autoimmune encephalomyelitis mice (real-time PCR); format: in vivo; details: day 42, spinal cord of EAE mice of Example 1, corrected by ribosomal RNA
Description: (§1) On day 42, the spinal cord was removed from the mice employed in Example 1, and total RNA was recovered by use of ISOGEN (Nippon Gene Co., Ltd.). For comparison, similarly, the spinal cord was extirpated from unsensitized normal mice, and was employed for the below-described quantitative determination. cDNA was synthesized from the thus-obtained total RNA by use of a reverse transcriptase, and the amount of mRNA of the following gene (F4/80, TNF-α, IL-1β, or IL-6) was quantitatively determined by means of an ABI PRISM 7900HT system (Applied Biosystems) through real-time PCR employing a TaqMan probe according to the protocol of Applied Biosystems. Meanwhile, the amount of ribosomal RNA was determined, and employed for correction.

TNF-α mRNA = TNF-α mRNA expression in the spinal cord of experimental autoimmune encephalomyelitis mice (real-time PCR); format: in vivo; details: day 42, spinal cord of EAE mice of Example 1, corrected by ribosomal RNA
Description: as §1

IL-1β mRNA = IL-1β mRNA expression in the spinal cord of experimental autoimmune encephalomyelitis mice (real-time PCR); format: in vivo; details: day 42, spinal cord of EAE mice of Example 1, corrected by ribosomal RNA
Description: as §1

IL-6 mRNA = IL-6 mRNA expression in the spinal cord of experimental autoimmune encephalomyelitis mice (real-time PCR); format: in vivo; details: day 42, spinal cord of EAE mice of Example 1, corrected by ribosomal RNA
Description: as §1

B1: IFN-β: IFN-β (Nihon Schering), interferon-β pharmaceutical product used in current therapy for multiple sclerosis; comparator (protein, UniProt P01574 22-187, looked up)
Interferon beta: MSYNLLGFLQRSSNFQCQKLLWQLNGRLEYCLKDRMNFDIPEEIKQLQQFQKEDAALTIYEMLQNIFAIFRQDSSSTGWNETIVENLLANVYHQINHLKTVLEEKLEKEDFTRGKLMSSLHLKRYYGRILHYLKAKEYSHCAWTIVRVEILRNFYFINRLTGYLRN
[1]; 10 per group, Drug A 30 mg/kg orally twice a day to day 42, IFN-β 10,000 IU/individual subcutaneously every other day
  Incidence rate, symptoms corresponding to score 2 or worse: 5/10
[1]; 42 days after sensitization, Drug A 30 mg/kg orally twice a day, IFN-β 10,000 IU/individual s.c. every other day
  death case during the experiment (score 5): 12, 37, and 40 days after sensitization
[1]; average ± standard error, Drug A 30 mg/kg orally twice a day, IFN-β 10,000 IU/individual subcutaneously every other day
  Days required for onset, symptoms corresponding to score 2 or worse: 27.4 ± 3.6 days
F4/80 mRNA
  amount of expression of mRNA of F4/80 in spinal cord: lower than that of drug A
TNF-α mRNA
  expression of TNF-α mRNA in spinal cord: not reduced
IL-1β mRNA
  expression of IL-1β mRNA in spinal cord: reduced
IL-6 mRNA
  expression of IL-6 mRNA in spinal cord: reduced
